Chains of the proteins cited; added tags and fusions are not shown.
UniProt P23944, whole entry: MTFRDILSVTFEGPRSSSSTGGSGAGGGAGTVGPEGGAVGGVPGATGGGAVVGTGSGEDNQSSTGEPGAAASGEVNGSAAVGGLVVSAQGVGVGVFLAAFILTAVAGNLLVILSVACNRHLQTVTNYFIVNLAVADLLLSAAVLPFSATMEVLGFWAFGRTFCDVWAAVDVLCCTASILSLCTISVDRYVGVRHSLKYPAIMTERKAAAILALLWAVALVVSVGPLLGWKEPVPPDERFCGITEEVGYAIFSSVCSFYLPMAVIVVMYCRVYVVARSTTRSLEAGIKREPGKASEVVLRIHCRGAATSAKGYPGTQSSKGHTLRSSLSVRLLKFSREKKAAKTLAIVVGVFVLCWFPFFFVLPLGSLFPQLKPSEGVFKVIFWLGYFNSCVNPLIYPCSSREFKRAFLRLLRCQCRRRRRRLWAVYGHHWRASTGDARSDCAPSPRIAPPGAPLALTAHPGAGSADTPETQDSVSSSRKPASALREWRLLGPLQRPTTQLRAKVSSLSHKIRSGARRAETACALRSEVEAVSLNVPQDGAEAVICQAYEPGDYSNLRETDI

In ChEMBL document CHEMBL1129400 (J Med Chem, 1996):

Columns and labels:
[1] = target: T1, Alpha-1A adrenergic receptor (Rattus norvegicus, UniProt P43140); experiment: Binding affinity against native Alpha-1A adrenergic receptor from rat hippocampus pretreated with chloroethylclonidine using radioligand ([3H]prazosin) binding assay; format: tissue-based
T1 sequence (P43140 whole entry): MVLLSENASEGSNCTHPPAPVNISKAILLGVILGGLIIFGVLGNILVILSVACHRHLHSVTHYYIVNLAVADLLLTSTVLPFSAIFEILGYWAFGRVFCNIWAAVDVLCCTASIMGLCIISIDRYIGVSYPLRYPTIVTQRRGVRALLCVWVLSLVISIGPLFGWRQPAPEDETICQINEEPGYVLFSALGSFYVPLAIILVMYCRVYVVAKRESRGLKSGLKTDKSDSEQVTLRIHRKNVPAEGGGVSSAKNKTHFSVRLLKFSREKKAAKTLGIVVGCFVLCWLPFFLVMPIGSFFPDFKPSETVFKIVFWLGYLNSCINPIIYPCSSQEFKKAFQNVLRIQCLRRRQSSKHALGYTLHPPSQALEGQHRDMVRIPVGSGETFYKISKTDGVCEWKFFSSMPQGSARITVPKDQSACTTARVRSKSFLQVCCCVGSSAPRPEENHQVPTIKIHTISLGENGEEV

[2] = target: Alpha-1D adrenergic receptor (Rattus norvegicus, UniProt P23944); experiment: Compound was tested for binding affinity against cloned Alpha-1D adrenergic receptor from rat brain.

With `O=C(CCCN1CCC2(CC1)C(=O)NCN2c1ccccc1)c1ccc(F)cc1` [SPIPERONE] the Ki [1] was 38 nM and the Ki [2] was 21.9 nM.
